Test results: patent US20120172392A1, “AMINE-BASED AND AMIDE-BASED INHIBITORS OF SEMICARBAZIDE-SENSITIVE AMINE OXIDASE (SSAO) ENZYME ACTIVITY AND VAP-1 MEDIATED ADHESION USEFUL FOR TREATMENT OF DISEASES” (priority 2004, published 2012)

Chains of the proteins cited; added tags and fusions are not shown.
UniProt O08590, whole entry: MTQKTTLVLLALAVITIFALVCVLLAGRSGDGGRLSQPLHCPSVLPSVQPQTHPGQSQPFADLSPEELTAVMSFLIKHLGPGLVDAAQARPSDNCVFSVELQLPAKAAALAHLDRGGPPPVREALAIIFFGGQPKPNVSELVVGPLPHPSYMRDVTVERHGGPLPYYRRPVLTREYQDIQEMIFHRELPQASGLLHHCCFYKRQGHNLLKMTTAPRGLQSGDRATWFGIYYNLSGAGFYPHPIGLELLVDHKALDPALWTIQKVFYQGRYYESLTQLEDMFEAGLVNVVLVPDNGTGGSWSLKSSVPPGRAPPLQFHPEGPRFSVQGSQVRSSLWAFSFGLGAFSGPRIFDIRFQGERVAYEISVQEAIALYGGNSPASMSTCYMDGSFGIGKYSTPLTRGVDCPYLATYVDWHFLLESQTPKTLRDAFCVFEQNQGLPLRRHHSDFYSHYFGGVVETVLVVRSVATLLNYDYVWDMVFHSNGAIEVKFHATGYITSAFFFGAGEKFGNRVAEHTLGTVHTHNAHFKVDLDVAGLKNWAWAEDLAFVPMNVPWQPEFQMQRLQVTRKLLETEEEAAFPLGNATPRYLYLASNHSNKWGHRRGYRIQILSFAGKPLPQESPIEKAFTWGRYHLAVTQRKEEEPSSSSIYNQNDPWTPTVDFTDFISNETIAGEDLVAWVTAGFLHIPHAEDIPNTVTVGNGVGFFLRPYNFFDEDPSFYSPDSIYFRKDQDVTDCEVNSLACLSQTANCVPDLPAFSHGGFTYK
UniProt P27338, whole entry: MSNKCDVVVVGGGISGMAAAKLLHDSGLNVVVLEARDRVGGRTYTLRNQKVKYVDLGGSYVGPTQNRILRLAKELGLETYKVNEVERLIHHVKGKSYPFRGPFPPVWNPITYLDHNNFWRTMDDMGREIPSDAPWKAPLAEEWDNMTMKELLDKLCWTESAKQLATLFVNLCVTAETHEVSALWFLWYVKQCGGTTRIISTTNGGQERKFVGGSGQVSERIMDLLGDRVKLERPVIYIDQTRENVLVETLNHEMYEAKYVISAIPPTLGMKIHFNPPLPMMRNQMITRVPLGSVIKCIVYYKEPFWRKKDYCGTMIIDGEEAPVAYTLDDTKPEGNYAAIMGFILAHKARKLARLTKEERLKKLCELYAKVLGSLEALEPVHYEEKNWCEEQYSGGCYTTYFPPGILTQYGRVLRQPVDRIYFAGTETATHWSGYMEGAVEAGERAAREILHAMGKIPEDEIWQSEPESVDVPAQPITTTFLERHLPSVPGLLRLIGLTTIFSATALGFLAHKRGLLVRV
UniProt P21397, whole entry: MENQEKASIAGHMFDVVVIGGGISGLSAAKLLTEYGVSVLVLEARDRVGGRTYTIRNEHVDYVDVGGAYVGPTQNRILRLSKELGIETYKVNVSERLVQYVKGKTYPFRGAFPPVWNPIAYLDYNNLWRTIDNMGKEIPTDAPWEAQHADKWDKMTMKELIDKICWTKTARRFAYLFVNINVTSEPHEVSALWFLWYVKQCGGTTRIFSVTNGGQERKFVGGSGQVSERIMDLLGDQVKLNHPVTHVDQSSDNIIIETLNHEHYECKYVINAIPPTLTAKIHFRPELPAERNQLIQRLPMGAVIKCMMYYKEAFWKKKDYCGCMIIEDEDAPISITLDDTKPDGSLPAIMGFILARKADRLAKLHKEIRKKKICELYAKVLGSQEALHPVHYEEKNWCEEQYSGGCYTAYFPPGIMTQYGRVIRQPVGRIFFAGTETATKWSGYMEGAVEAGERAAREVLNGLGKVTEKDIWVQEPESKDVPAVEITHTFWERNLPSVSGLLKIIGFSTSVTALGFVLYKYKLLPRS

Legend:
SSAO = SSAO (Rattus norvegicus, UniProt O08590); test: In vitro inhibition of SSAO activity, radiolabeled benzylamine procedure (rat lung homogenate); details: Table I; for IC50: compounds of formula X
Description: SSAO activity was also measured as described (Lizcano J M. Et al. (1998) Biochem J. 331:69). Briefly, rat lung homogenates were prepared by chopping the freshly removed tissue into small pieces and washing them thoroughly in PBS. The tissue was then homogenized 1:10 (w/v) in 10 mM potassium phosphate buffer (pH 7.8) and centrifuged at 1000 g at 4° C. for 10 minutes; the supernatant was kept frozen until ready to use. SSAO activity in 100 ul of lung homogenate was determined radiochemically using 20 uM ^14C-benzylamine as substrate. The reaction was carried out at 37° C. in a final volume of 300 ul of 50 mM potassium phosphate buffer (pH 7.2) and stopped with 100 ul of 2 M citric acid. Radioactively labeled products were extracted into; toluene/ethyl acetate (1:1, v/v) containing 0.6% (w/v) 2,5-diphenyloxdazole (PPO) before liquid scintillation counting.

human MAO-B = human MAO-B (Homo sapiens, UniProt P27338); test: Inhibition of MAO-B activity, coupled colorimetric assay; details: read-out: MAO-B (IC50); recombinant human MAO-B, benzylamine substrate
Description: (§1) The specificity of the different SSAO inhibitors was tested by determining their ability to inhibit MAO-A and MAO-B activities in vitro. Recombinant human MAO-A and human MAO-B enzymes were obtained from BD Biosciences (MA, USA). MAO activities were measured in a similar way as for SSAO except that no pre-incubation with inhibitor or substrate was performed. A pre-determined amount of inhibitor diluted in 0.2 M potassium phosphate buffer, pH 7.6, was added to each well, if required. The amount of inhibitor varied in each assay but was generally at a final concentration of between 50 nM and 1 mM. Controls lacked inhibitor. The following agents were then added to a final reaction volume of 200 μl in 0.2 M potassium phosphate buffer, pH 7.6: 0.04 mg/ml of MAO-A or 0.07 mg/ml MAO-B enzyme, 15 μl of 10 mM tyramine substrate (for MAO-A), or 15 μl 100 mM benzylamine substrate (for MAO-B), and 50 μl of freshly made chromogenic solution (as above). The plates were incubated for 60 min at 37° C. The increase in absorbance, reflecting MAO activity, was measured at 490 nm using microplate spectrophotometer (Power Wave 40, Bio-Tek Inst.). Inhibition was determined as percent inhibition compared to control after correcting for background absorbance and IC50 values, and was calculated using. GraphPad Prism software. Clorgyline and pargyline (inhibitors of MAO-A and -B, respectively) at 0.5 and 10 μM, respectively, were added to some wells as positive controls for MAO inhibition.

human MAO-A = human MAO-A (Homo sapiens, UniProt P21397); test: Inhibition of MAO-A activity, coupled colorimetric assay; details: read-out: MAO-A (IC50); recombinant human MAO-A, tyramine substrate
Description: as §1

| IC50 (SSAO) [µM] | IC50 (human MAO-B) [µM] | IC50 (human MAO-A) [µM] | % inhibition (SSAO; at 7 μM) [%] | % inhibition (SSAO; at 9 μM) [%] | Compound |
| --- | --- | --- | --- | --- | --- |
| > 100 | – | – | – | – | CN(C)CC(=O)NCc1ccc(F)cc1 |
| > 100 | – | – | – | – | CCN(CC)CC(=O)NCCc1ccccc1 |
| 0.01 | > 1000 | > 1000 | – | – | NCC(=O)NCc1cc(C(F)(F)F)ccc1F |
| 0.015 | > 1000 | > 1000 | – | – | NCC(=O)NCc1cccc(C(F)(F)F)c1F |
| > 100 | – | – | – | – | O=C(CNc1ccc(F)cc1)NCc1ccc(F)cc1 |
| 0.18 | > 1200 | > 1200 | – | – | NCC(=O)NCc1ccc(F)c(C(F)(F)F)c1 |
| 0.1 | – | – | – | – | Cc1ccc(CNC(=O)CN)cc1 |
| 0.49 | – | – | 77 | – | NCC(=O)NCc1ccc(C(F)(F)F)c(F)c1 |
| 0.52 | – | – | – | 88 | NCC(=O)NCc1ccc(Cl)nc1 |
